Two substances from patent US20150225704A1 can be followed below.

Amino acid sequences for entries named in this document (tags omitted). A change or cut given only in a name is not applied to a line headed by its entry.
UniProt Q8IUH5: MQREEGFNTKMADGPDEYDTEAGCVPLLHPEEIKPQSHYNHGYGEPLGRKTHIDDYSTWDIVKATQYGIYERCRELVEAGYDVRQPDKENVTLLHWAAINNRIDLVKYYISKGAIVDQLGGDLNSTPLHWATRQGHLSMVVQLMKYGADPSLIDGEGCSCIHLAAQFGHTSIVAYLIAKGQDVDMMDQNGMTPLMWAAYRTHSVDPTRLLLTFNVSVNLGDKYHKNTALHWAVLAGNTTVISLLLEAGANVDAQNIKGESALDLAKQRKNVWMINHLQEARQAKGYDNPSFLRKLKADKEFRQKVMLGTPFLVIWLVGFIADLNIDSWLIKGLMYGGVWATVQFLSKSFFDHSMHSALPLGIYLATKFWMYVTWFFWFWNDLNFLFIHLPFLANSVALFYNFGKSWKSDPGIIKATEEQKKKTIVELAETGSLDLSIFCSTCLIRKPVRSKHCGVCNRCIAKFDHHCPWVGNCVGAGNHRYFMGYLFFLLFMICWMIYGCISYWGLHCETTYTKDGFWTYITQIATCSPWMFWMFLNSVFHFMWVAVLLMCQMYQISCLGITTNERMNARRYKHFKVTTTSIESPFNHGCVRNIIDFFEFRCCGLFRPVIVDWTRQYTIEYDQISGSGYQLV

The target in assay [1] is myc-tagged full-length palmitoyl acyl transferase zinc-finger DHHC type containing 17 (zD17) (UniProt Q8IUH5). As to the kind of experiment: cell-based or functional assay.
Assay [2] has the same target. The experiment in a line: co-immunoprecipitation of zD17 and JNK3 in HEK293 cells with overexpressed PSD-95 (competitor of JNK3).
For assay [3] the target is unchanged. As to the kind of experiment: co-immunoprecipitation of zD17 and JNK3 in HEK293 cells with overexpressed PSD-95C3,5S.

As for “GFP-PSD95 (postsynaptic density-95) (from UniProt P78352 1-724)”, in assay [1], the JNK3 phosphorylation (fold change) in HEK293 cells is 0.64 fold change. The fold change of the zD17-JNK3 interaction in assay [2] came to 0.82 fold change.

With “GFP-PSD95 C3,5S (palmitoylation sites mutated) (from UniProt P78352 1-724)”, in assay [1], the JNK3 phosphorylation (fold change) in HEK293 cells worked out at 1.19 fold change. Also, in assay [3], the fold change of the zD17-JNK3 interaction worked out at 1.25 fold change.
